In brackets after ≈: the same amount, converted by molar mass. Like-named read-outs stand apart in the source and are kept apart here.
Assay: Equilibrium solubility in biorelevant media, saturation shake-flask method
Type: physicochemical

SpH ± SD (FaSSGF, pH 1.6, 37 °C): 56.0 ± 0.5 µg/mL
SpH ± SD (FaSSIF blank, pH 6.5, 37 °C): 2513 ± 15 µg/mL
solubility thermodynamic at 6 h (blank FaSSGF, pH 1.6, read-out: equilibrium solubility SBlankFaSSGF): 56.3 µg/mL (≈ 0.273 mM)
solubility thermodynamic at 6 h (pH 6.5 blank FaSSIF, read-out: equilibrium solubility): ~2500 µg/mL (≈ 12.1 mM)
SMILES: CC(C)Cc1ccc(C(C)C(=O)O)cc1 (stereo not shown) [ibuprofen]

Source: PMC10051608, “Multi-Compartmental Dissolution Method, an Efficient Tool for the Development of Enhanced Bioavailability Formulations Containing Poorly Soluble Acidic Drugs” (Pharmaceutics, 2023)
